Biological target: NAALADase (Rattus norvegicus, UniProt P70627)
Experiment: In vitro inhibition of NAALADase activity
Type: biochemical

Sequences of proteins named here, by UniProt entry; tags and fusion partners are left off.
UniProt P70627, whole entry: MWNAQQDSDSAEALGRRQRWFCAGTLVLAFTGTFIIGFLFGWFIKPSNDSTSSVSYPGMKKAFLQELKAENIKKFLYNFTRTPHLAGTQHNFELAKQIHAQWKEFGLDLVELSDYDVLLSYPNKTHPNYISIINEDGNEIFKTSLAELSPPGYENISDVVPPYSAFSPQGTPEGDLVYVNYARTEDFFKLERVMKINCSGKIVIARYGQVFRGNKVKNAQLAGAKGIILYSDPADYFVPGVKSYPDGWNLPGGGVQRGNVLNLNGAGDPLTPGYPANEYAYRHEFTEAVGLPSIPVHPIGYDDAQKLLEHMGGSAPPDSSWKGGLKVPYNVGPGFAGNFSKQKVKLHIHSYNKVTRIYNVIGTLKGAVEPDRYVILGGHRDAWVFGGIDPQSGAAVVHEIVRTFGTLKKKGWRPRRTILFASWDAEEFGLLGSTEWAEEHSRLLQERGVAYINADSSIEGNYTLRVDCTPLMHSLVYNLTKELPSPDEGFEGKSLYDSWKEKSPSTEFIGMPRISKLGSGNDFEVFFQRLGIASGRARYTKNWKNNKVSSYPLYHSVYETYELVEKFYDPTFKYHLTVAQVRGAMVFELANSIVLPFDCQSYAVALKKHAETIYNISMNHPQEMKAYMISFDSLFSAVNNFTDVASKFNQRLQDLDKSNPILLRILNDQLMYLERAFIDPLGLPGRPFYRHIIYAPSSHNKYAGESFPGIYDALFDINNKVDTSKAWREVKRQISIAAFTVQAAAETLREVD

4′-(2-carboxy-5-mercaptopropyl)-[1,1′-biphenyl]-2-carboxylic acid
IC50: 87 nM

From US7220780B2, “Naaladase inhibitors for treating retinal disorders and glaucoma” (Guilford Pharmaceuticals Inc., priority 2000, dated 2007)
